# Source: PubChem BioAssay AID743279 (National Center for Advancing Translational Sciences (NCATS), 2014)
# Only a part is listed here, and it is no random draw. Results filed as inconclusive are left out. Some salts and complexes are drawn in separate pieces, as the source files them; their charges need not balance. The source made the active and inactive calls. Rule as the data show it: active = activity change below about -50%; inconclusive = mostly about -30% to -49%; inactive = weaker than that.
# Experiment: qHTS for Inhibitors of Inflammasome Signaling: IL-1-beta AlphaLISA Primary Screen
# Conditions: THP-1 LPS/ATP IL-1B secretion, 16 h; at 57.5 µM, hits give low values
# Description: Inflammasomes are a set of intracellular multi-protein complexes that enable autocatalytic activation of inflammatory caspases and drive the innate immune response to counter harmful agents. […] A qHTS assay, based on AlphaLISA technology, was developed to screen the Molecular Libraries Small Molecule Repository (MLSMR) to look for novel inflammasome inhibitors. The assay detects IL-1B using AlphaLISA anti-IL-1B acceptor and donor beads. A decreased emission signal, indicating reduced IL-1B secretion, is the desired outcome for this assay. NIH Chemical Genomics Center [NCGC] NIH Molecular Libraries Probe Centers Network [MLPCN] MLPCN Grant: MH095513 Assay Provider: Shyam Biswal Ph.D., Johns Hopkins University Immunity. 2012 Jul 27;37(1):85-95. PMID: 22819042 [2] Curr Pharm Des. 2012;18(16):2320-8. PMID: 22390695
# Three microliters containing 3000 THP-1 cells were dispensed into the wells of solid, white, tissue culture treated Greiner 1,536-well plates. Library compounds and positive control, Glyburide, were pin-transferred (23 nL) by a Kalypsys pin-tool equipped with a 1,536-pin array, resulting in final compound concentration ranges of 2.5 nM to 57.5 uM. After 1 hr of cell culture incubation (37 °C, 5% CO2), 1 microL of 1 microg/mL lipopolysaccharide (250 ng/mL, final) and 5 mM ATP (1.25 mM, final) were added to stimulate the cells. After 16 hr of cell culture incubation with the compounds, 1.5 uL of anti-IL-1B acceptor beads (6 ug/mL, final) and biotinylated antibody (0.6 nM, final) were added to the plate, followed by a 1 hr incubation at ambient temperature. To detect the secreted IL-1B, 1.5 uL of AlphaLISA SA-Donor beads (24 ug/mL, final) were added, followed by 30 min of incubation in the dark at ambient temperature. The AlphaLISA signal was read by a PerkinElmer EnVision plate reader with an ultrasensitive luminescence detector and 1536 Plate HTS AlphaScreen aperture (excitation of 680nm and emission of 615nm).
# % is scaled to controls: 0 for no effect and ±100 for the full control effect.
row,Compound,activity change
1,N#Cc1ccc(C(=O)NCC2(N3CCCCC3)CCCCC2)cc1,inactive: -9.11%
2,CC(C)(C)OC(=O)N1CCC(N(C(=O)c2ccccc2)c2ccc(Cl)cc2)CC1,active
3,CCOC(=O)C(CC)C1=NC(C)(C)Cc2ccccc21.O=[N+]([O-])c1cc([N+](=O)[O-])c(O)c([N+](=O)[O-])c1 (stereo not drawn),inactive: 15.2%
4,CN(C)C1(CNC(=O)c2cccc(C#N)c2)CCCCC1,inactive: 17.1%
5,Cc1cc(N(CCCl)CCCl)ccc1C=O,inactive: 5.08%
6,CCCN1CCC(Nc2cc(OC)cc(OC)c2)CC1,inactive: -8.92%
7,c1ccc(CN2CCC(Nc3ccccc3)CC2)cc1,inactive: -3.67%
8,CC(C)(C)n1nnnc1C(c1cccc2ccccc12)N1CCC(n2c(=O)[nH]c3ccccc32)CC1 (stereo not drawn),active
9,COc1cc(C(=O)NCC2(N3CCOCC3)CCCCC2)cc(OC)c1C,inactive: 13.4%
10,CCCCn1nnnc1C(c1ccccc1)N1CCC(n2c(=O)[nH]c3ccccc32)CC1 (stereo not drawn),inactive: -8.46%
11,O=C(NCC1(N2CCOCC2)CCCCC1)c1cc(Br)ccc1Cl,inactive: -10.7%
12,O=c1[nH]c2ccccc2n1C1CCN(C(c2cccs2)c2nnnn2C2CCCCC2)CC1 (stereo not drawn),inactive: -19.4%
13,O=c1[nH]c2ccccc2n1C1CCN(C(c2ccnc3ccccc23)c2nnnn2C2CCCC2)CC1 (stereo not drawn),inactive: 0%
14,COc1ccc(C(=O)NCC2(N3CCOCC3)CCCCC2)cc1OC,inactive: -23.6%
15,CCOC(=O)N1CCC(Nc2ccc(C)cc2)CC1,inactive: -4.17%
16,N/C(=N\O)c1c(N)no[n+]1[O-],inactive: 17.2%
17,O=C(O)c1cccc(Nc2c([N+](=O)[O-])cc([N+](=O)[O-])cc2[N+](=O)[O-])c1,inactive: -2.17%
18,CCc1cc(C(=O)NCC2(N3CCCCC3)CCCCC2)sc1C,active
19,O=C(OC1CN2CCC1CC2)C1c2ccccc2C=Cc2ccccc21 (stereo not drawn),inactive: -25.7%
20,CCCCn1nnnc1C(c1cccc(OC)c1OC)N1CCC(n2c(=O)[nH]c3ccccc32)CC1 (stereo not drawn),inactive: -29.9%
21,CN1CCC(Nc2ccc(F)c(Cl)c2)CC1,inactive: -3.46%
22,CCOc1ncccc1C(=O)NCC1(N2CCOCC2)CCCCC1,inactive: -0.586%
23,O=C(O)C1(Nc2ccccc2)CCN(Cc2ccccc2)CC1,inactive: 10.6%

row,Compound,activity change
1,NN(c1ccccc1)C1CCN(CCc2ccccc2)CC1,inactive: 0%
2,CC(C)(C)OC(=O)N1CCC(Nc2ccccc2)CC1,inactive: -16.6%
3,CCCOc1ccc(C(=O)NCC2(N(C)C)CCCCC2)cc1,inactive: -19.2%
4,COc1cccc(C(c2nnnn2C2CCCC2)N2CCC(n3c(=O)[nH]c4ccccc43)CC2)c1OC (stereo not drawn),inactive: 0%
5,COc1cc(OC)cc(C(=O)NCC2(N3CCOCC3)CCCCC2)c1,inactive: 20.5%
6,COc1cccc(C(=O)N(c2cc(C)cc(C)c2)C2CCN(C(=O)OC(C)(C)C)CC2)c1,active
7,CCC(CO)(C(=O)OC1CN2CCC1CC2)c1ccccc1 (stereo not drawn),inactive: 6.15%
8,CN1CCC(Nc2ccc(Cl)cc2)CC1,inactive: -13.3%
9,CCC(c1nnnn1C1CCCCC1)N1CCC(n2c(=O)[nH]c3ccccc32)CC1 (stereo not drawn),inactive: -20.1%
10,COc1cccc(C(c2nnnn2C2CCCCC2)N2CCC(n3c(=O)[nH]c4ccccc43)CC2)c1OC (stereo not drawn),inactive: -25.5%
11,CC(=O)N(c1ccccc1)C1CCNCC1,inactive: -17.6%
12,COc1cc(OC)cc(C(=O)NCC2(N3CCCCC3)CCCCC2)c1,inactive: -3.27%
13,O=c1[nH]c2ccccc2n1C1CCN(C(c2ccnc3ccccc23)c2nnnn2C2CCCCC2)CC1 (stereo not drawn),active
14,Fc1ccccc1NC1CCN(Cc2ccccc2)CC1,inactive: -1.11%
15,Cc1ccc(Nc2c([N+](=O)[O-])cc([N+](=O)[O-])cc2[N+](=O)[O-])cc1,active: -69%
16,Cc1ccc(C(=O)NCC2(N3CCCCC3)CCCCC2)o1,inactive: 10.3%
17,Cc1ccc(NC2(C#N)CCN(Cc3ccccc3)CC2)cc1,inactive: 11.1%
18,CCN1CCC(Nc2cccc(F)c2)CC1,inactive: 4.38%
19,COc1ccc(C(c2nnnn2C2CCCCC2)N2CCC(n3c(=O)[nH]c4ccccc43)CC2)cc1 (stereo not drawn),active
20,CC(C)(C)n1nnnc1C(c1ccnc2ccccc12)N1CCC(n2c(=O)[nH]c3ccccc32)CC1 (stereo not drawn),inactive: 30.8%
21,Cc1ccccc1NC1(C#N)CCN(Cc2ccccc2)CC1,inactive: 8.39%
22,CN(C)c1ccc(C(=O)NCC2(N3CCCCC3)CCCCC2)cc1,inactive: -4.35%
23,Cn1c(=O)[nH]cc(N(CCCl)CCCl)c1=O,inactive: 8.91%

row,Compound,activity change
1,O=C(NCC1(N2CCCCC2)CCCCC1)c1ccco1,inactive: 8.13%
2,O=C1CCN(Cc2ccccc2)CC1,inactive: 5.27%
3,CC(C)(C)n1nnnc1C(c1ccccc1)N1CCC(n2c(=O)[nH]c3ccccc32)CC1 (stereo not drawn),inactive: -15.9%
4,CCOc1ccc(C)cc1CN(CCCl)CCCl,inactive: 3.39%
5,COc1ccc(NC2CCN(CCc3ccccc3)CC2)c(OC)c1,inactive: -8.96%
6,CCOC(=O)N1CCC(Nc2ccc(F)cc2)CC1,inactive: -21.6%
7,O=P1(N(CCCl)CCCl)SCCCS1,inactive: 5.33%
8,CCCCn1nnnc1C(c1cc2ccccc2o1)N1CCC(n2c(=O)[nH]c3ccccc32)CC1 (stereo not drawn),active
9,CCCCOc1ccc(C(=O)NCC2(N3CCOCC3)CCCCC2)cc1,active
10,O=C(NCC1(N2CCCCC2)CCCCC1)c1ccc(F)cc1,inactive: 14.4%
11,O=c1[nH]c2ccccc2n1C1CCN(C(c2ccccc2)c2nnnn2C2CCCCC2)CC1 (stereo not drawn),inactive: 0%
12,CCOC(=O)N1CCC(Nc2cccc(C)c2)CC1,inactive: -5.4%
13,COc1cc(C(=O)NCC2(N(C)C)CCCCC2)ccc1OC(F)F,inactive: -14.5%
14,CC(C)(C)OC(=O)N1CCC(N(C(=O)c2ccccc2)c2ccc(F)cc2)CC1,inactive: 16.5%
15,COc1ccc(C(=O)NCC2(N3CCCCC3)CCCCC2)c(OC)c1OC,inactive: -0.661%
16,CCC(c1nnnn1C1CCCC1)N1CCC(n2c(=O)[nH]c3ccccc32)CC1 (stereo not drawn),inactive: -13.9%
17,COc1ccc(C(=O)NCC2(N3CCCCC3)CCCCC2)cc1,inactive: 4.98%
18,O=C(NCC1(N2CCCCC2)CCCCC1)c1cccs1,inactive: -2.68%
19,CCCCn1nnnc1C(CC)N1CCC(n2c(=O)[nH]c3ccccc32)CC1 (stereo not drawn),inactive: -27.3%
20,CCCCn1nnnc1C(c1cccs1)N1CCC(n2c(=O)[nH]c3ccccc32)CC1 (stereo not drawn),inactive: 0%
21,O=C(NCC1(N2CCCCC2)CCCCC1)c1ccc(=O)[nH]c1,inactive: 6.98%
22,Cc1cccc(NC2(C#N)CCN(Cc3ccccc3)CC2)c1,inactive: -0.279%
23,CSc1ccccc1C(=O)NCC1(N2CCCCC2)CCCCC1,inactive: -5.77%

row,Compound,activity change
1,Cc1cc(C)cc(N(C(=O)c2ccccc2)C2CCN(C(=O)OC(C)(C)C)CC2)c1,active
2,O=C(NCC1(N2CCCCC2)CCCCC1)c1ccc(Cl)nc1,inactive: -19.4%
3,O=c1[nH]c2ccccc2n1C1CCN(C(c2ccccc2OC(F)(F)F)c2nnnn2C2CCCCC2)CC1 (stereo not drawn),inactive: -29.4%
4,O=C(NCC1(N2CCOCC2)CCCCC1)c1cc2ccccc2o1,inactive: -4.42%
5,COc1ccc(Cl)cc1C(=O)NCC1(N2CCOCC2)CCCCC1,inactive: -29.4%
6,O=C1C(O)=C([N+](=O)[O-])C(=O)C(O)=C1[N+](=O)[O-],inactive: -2.25%
7,N#CC1(Nc2ccccc2)CCN(Cc2ccccc2)CC1,inactive: 0%
8,O=C(NCC1(N2CCCCC2)CCCCC1)c1ccc(Cl)s1,inactive: -4.58%
9,O=C(OC1CN2CCC1CC2)C1c2ccccc2Oc2ccccc21 (stereo not drawn),inactive: -10.7%
10,O=c1[nH]c2ccccc2n1C1CCN(C(c2cc3ccccc3o2)c2nnnn2C2CCCCC2)CC1 (stereo not drawn),inactive: 0%
11,CCCCn1nnnc1C(c1ccc(OC)cc1)N1CCC(n2c(=O)[nH]c3ccccc32)CC1 (stereo not drawn),inactive: -26.2%
12,CCOC(=O)N1CCC(Nc2ccc(OC)cc2)CC1,inactive: -4.41%
13,CC(C)c1ccc(NC2CCN(C(=O)OC(C)(C)C)CC2)cc1,active
14,CCCCn1nnnc1C(c1ccccc1OC(F)(F)F)N1CCC(n2c(=O)[nH]c3ccccc32)CC1 (stereo not drawn),inactive: -20.9%
15,O=[N+]([O-])c1cc([N+](=O)[O-])c(OC2CCCCC2O)c([N+](=O)[O-])c1 (stereo not drawn),inactive: 22.2%
16,CN(C)c1cccc(C(=O)NCC2(N3CCCCC3)CCCCC2)c1,inactive: 37.5%
17,COc1ccc(CN(CCCl)CCCl)cc1Cl,inactive: -5.69%
18,O=C(NCC1(N2CCOCC2)CCCCC1)c1cc(F)c(F)cc1Cl,inactive: -8.58%
19,CCC(c1nnnn1C(C)(C)C)N1CCC(n2c(=O)[nH]c3ccccc32)CC1 (stereo not drawn),inactive: -28.8%
20,COc1cc(OC)c(C(=O)NCC2(N(C)C)CCCCC2)cc1OC,inactive: -4.4%
21,CCCCn1nnnc1C(c1ccnc2ccccc12)N1CCC(n2c(=O)[nH]c3ccccc32)CC1 (stereo not drawn),inactive: -15.2%
22,O=C(OC1CN2CCC1CC2)c1ccc([N+](=O)[O-])cc1 (stereo not drawn),active: -69.5%
23,CN1CCC(Nc2cccc(F)c2)CC1,inactive: -24.1%

row,Compound,activity change
1,COc1ccc2c(c1O)-c1c(O)c(OC)cc3c1[C@H](C2)[N+](C)(C)CC3.O=[N+]([O-])c1cc([N+](=O)[O-])c([O-])c([N+](=O)[O-])c1[O-],inactive: 23.8%
2,O=C(NCC1(N2CCCCC2)CCCCC1)c1cncc(Br)c1,inactive: 5.69%
3,O=[N+]([O-])c1cc([N+](=O)[O-])c(Nc2ccc(Cl)cc2)c([N+](=O)[O-])c1,inactive: 0%
4,COc1ccc(C(c2nnnn2C2CCCC2)N2CCC(n3c(=O)[nH]c4ccccc43)CC2)cc1 (stereo not drawn),inactive: 17.6%
5,CCCOc1ccc(C(=O)NCC2(N(C)C)CCCCC2)cc1OC,inactive: -13.2%
6,Cc1ccc(C(=O)NCC2(N(C)C)CCCCC2)o1,inactive: 3.77%
7,O=C(NCC1(N2CCCCC2)CCCCC1)c1ccc(OC(F)F)cc1,inactive: -17.2%
8,CC(C)(C)n1nnnc1C(c1ccccc1OC(F)(F)F)N1CCC(n2c(=O)[nH]c3ccccc32)CC1 (stereo not drawn),active
9,O=c1[nH]c2ccccc2n1C1CCN(C(c2ccccc2OC(F)(F)F)c2nnnn2C2CCCC2)CC1 (stereo not drawn),active
10,N#CC1(Nc2ccccc2)CCN(CCc2ccccc2)CC1,inactive: 0.223%
11,CCN1CCC(Nc2ccc(Cl)cc2)CC1,inactive: -7.62%
12,CSc1ccc(C(=O)NCC2(N3CCOCC3)CCCCC2)cc1,inactive: -19.9%
13,O=C(NCC1(N2CCCCC2)CCCCC1)c1cccc([N+](=O)[O-])c1,inactive: 0.204%
14,O=[N+]([O-])c1cc([N+](=O)[O-])c(NCC2CCS(=O)(=O)C2)c([N+](=O)[O-])c1 (stereo not drawn),active: -136%
15,O=C(NCC1(N2CCCCC2)CCCCC1)c1cccc(C(F)(F)F)c1,inactive: -14.9%
16,COc1cc(C(=O)NCC2(N3CCCCC3)CCCCC2)ccc1OC(F)F,inactive: 18.9%
17,O=C(NCC1(N2CCOCC2)CCCCC1)c1cc(=O)[nH]c2ccccc12,inactive: -15.7%
18,CN1CCN(CCOC(=O)C(O)(c2ccccc2)c2ccccc2)CC1,inactive: 4.17%
19,CC(C)c1ccc(C(=O)NCC2(N3CCOCC3)CCCCC2)cc1,inactive: -5.04%
20,COc1ccc(NC2CCN(C(=O)OC(C)(C)C)CC2)cc1,inactive: 6.73%
21,CCCCn1nnnc1C(c1cccc2ccccc12)N1CCC(n2c(=O)[nH]c3ccccc32)CC1 (stereo not drawn),active
